Sequences of proteins named here, by UniProt entry; tags and fusion partners are left off. Residues count along the entry.
UniProt P35968, 20-1356: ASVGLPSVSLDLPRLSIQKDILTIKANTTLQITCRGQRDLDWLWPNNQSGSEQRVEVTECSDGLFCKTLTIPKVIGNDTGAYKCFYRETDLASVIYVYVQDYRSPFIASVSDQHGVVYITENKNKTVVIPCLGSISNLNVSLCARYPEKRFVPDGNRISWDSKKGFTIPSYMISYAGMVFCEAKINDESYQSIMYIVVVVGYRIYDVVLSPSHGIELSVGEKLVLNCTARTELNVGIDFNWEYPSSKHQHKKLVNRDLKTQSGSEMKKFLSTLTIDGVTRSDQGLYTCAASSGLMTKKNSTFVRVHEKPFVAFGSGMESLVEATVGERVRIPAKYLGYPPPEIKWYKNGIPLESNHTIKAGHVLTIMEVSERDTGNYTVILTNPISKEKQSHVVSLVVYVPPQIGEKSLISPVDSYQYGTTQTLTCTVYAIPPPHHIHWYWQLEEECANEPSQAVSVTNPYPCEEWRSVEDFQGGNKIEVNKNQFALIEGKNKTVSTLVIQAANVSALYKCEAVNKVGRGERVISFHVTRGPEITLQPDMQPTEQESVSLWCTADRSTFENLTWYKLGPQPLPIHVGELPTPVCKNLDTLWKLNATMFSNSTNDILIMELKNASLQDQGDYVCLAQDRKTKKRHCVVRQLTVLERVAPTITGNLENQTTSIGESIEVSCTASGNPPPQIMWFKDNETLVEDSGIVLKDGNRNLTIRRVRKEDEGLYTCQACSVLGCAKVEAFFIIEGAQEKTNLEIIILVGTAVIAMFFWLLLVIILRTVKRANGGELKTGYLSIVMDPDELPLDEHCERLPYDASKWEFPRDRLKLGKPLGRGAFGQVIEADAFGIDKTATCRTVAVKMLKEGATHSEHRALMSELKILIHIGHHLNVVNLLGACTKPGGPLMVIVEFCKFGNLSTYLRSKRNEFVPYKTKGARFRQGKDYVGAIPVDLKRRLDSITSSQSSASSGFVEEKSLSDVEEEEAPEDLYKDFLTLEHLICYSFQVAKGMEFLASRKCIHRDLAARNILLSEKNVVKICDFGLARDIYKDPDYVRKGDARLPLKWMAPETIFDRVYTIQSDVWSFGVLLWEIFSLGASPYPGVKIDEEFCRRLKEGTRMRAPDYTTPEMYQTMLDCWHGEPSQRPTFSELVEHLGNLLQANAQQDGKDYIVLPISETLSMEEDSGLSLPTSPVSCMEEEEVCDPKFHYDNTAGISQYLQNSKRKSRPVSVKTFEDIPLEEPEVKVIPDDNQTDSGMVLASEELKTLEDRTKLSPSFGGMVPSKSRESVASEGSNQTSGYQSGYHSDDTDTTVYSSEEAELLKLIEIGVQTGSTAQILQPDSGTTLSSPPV

According to patent US7175844B2, “Methods of modulating fibrosis” (Joslin Diabetes Center, Inc., priority 2000, dated 2007):

Tests used:
KDR/Flk1 = KDR/Flk1 (Homo sapiens, UniProt P35968); conditions: cited from earlier work
PI3-kinase = PI3-kinase activity assay in BRPC; conditions: 25 ng/ml

VEGF
Kd (KDR/Flk1): 10 to 100 pM | PI3-kinase activity increase (PI3-kinase; after 5 min): 2.1±0.27 fold | PI3-kinase activity increase (PI3-kinase; after 10 min): 1.6±0.17 fold
